Test system: MC57G cells
Test: Cell mediated lymphocytotoxicity (CML) 51Cr release assay with ova 257–264 specific CTL
Assay type: cell-based
Conditions: MC57G infected at moi 1 or peptide 1 μM, 4 hours at 37° C.

Sequence: SIINFEKL
- Percent Specific Lysis (Effector:Target Ratio 2:1): 54%
- Percent Specific Lysis (Effector:Target Ratio 10:1): 83%

— patent US7067251B2 (priority 2000, dated 2006)
